For the experiment, the target named is T1, msR4M-L1 (Homo sapiens, UniProt P61073).
T1 construct: made in house; host or cells: chemical synthesis (SPPS, Fmoc)
The experiment is described as follows: Fluorescence titration of Fluos-msR4M-L1 with partial MIF peptides. As to conditions: Screen of binding region MIF(38-80); Fluos-msR4M-L1 5 nM; read-out: App. KD. How it is done:
Fluorescence spectroscopy. Fluorescence spectroscopic titrations were performed as described^28, 32. Fluorescence spectra were recorded using a JASCO FP-6500 fluorescence spectrophotometer. […] Apparent KD values (app. KD) were calculated assuming a 1/1 binding model^32.

Sequences of proteins named here, by UniProt entry; tags and fusion partners are left off. A change or cut given only in a name is not applied to a line headed by its entry.
UniProt P61073: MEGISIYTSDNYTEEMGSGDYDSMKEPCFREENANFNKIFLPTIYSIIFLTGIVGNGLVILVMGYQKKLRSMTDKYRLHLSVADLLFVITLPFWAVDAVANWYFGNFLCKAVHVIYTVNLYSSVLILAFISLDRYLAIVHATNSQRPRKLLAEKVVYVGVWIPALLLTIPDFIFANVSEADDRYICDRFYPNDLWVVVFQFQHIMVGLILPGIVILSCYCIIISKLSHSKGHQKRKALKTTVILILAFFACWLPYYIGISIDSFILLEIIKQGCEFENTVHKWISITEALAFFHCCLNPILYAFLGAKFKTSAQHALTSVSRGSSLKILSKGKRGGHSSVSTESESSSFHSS

The values below come from US20230242616A1, “CHEMOKINE-SELECTIVE CXCR4 ECTODOMAIN-DERIVED (POLY)PEPTIDE” (Ludwig-Maximilians-Universität München, priority 2020, published 2023).

A value given as a limit tells only on which side of the number the result lay.

As to `CC[C@H](C)[C@H](NC(=O)[C@H](CCCCN)NC(=O)CNC(=O)[C@@H](NC(=O)[C@H](CO)NC(=O)[C@H](Cc1c[nH]cn1)NC(=O)[C@H](CC(C)C)NC(C)=O)[C@@H](C)CC)C(=O)NCC(=O)NCC(=O)N[C@@H](C)C(=O)N[C@@H](CCC(N)=O)C(=O)N[C@@H](CC(N)=O)C(=O)N[C@@H](CCCNC(=N)N)C(=O)N[C@@H](CO)C(=O)N[C@@H](Cc1ccc(O)cc1)C(=O)N[C@@H](CO)C(=O)N[C@@H](CCCCN)C(=O)N[C@@H](CC(C)C)C(=O)N[C@@H](CC(C)C)C(=O)O` [MIF 62-80], the Kd was above 5 µM.
